Laboratory results as given in patent publication US20110118276A1, “METHODS OF TREATING ATHEROSCLEROSIS” (priority 2008, published 2011).

Amino acid sequences for entries named in this document (tags omitted).
UniProt P0DMS8, whole entry: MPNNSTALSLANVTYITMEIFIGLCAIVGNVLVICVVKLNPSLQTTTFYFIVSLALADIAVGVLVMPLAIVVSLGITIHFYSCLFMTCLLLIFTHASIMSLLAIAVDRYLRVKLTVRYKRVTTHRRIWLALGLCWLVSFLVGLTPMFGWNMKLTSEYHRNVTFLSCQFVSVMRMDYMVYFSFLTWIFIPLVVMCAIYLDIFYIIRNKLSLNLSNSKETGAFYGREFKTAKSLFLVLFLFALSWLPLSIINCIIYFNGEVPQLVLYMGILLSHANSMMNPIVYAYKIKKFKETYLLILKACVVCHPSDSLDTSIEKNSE

Biological target: T1, human A3 adenosine receptors (Homo sapiens, UniProt P0DMS8)
T1 construct: U937 cells and macrophages were homogenized, respectively, in hypotonic buffer and phosphate-buffered saline (PBS); endogenous in cells; host or cells: PMA-treated U937 cells, human macrophages, U937-derived foam cells (membranes)
Assay: Saturation binding with [3H]MRE 3008F20 to label A3 adenosine receptors

Question: For `CCCn1cc2c(nc(NC(=O)Nc3ccc(OC)cc3)n3nc(-c4ccco4)nc23)n1` [[^3H]MRE-3008F20, 5-N-(4-methoxyphenyl-carbamoyl)amino-8-propyl-2-(2furyl)-pyrazolo-[4,3e]-1,2,4-triazolo[1,5-c]pyrimidine], which Kd (U937 cells, hypoxic) is on record?
Answer: Its Kd is 2 ± 0.1 nM.

Question: What about the Kd (U937 cells, normoxic) of the same molecule?
Answer: Its Kd is 1.5 ± 0.1 nM.

Question: And the Kd (foam cells, hypoxic)?
Answer: The Kd was 2.3 ± 0.1 nM.

Question: What about the Kd (foam cells, normoxic) of the same molecule?
Answer: The Kd was 1.7 ± 0.1 nM.

Question: What about the Kd (human macrophages, hypoxic) of the same molecule?
Answer: The Kd was 4.8 ± 0.7 nM.

Question: What about the Kd (human macrophages, normoxic) of the same molecule?
Answer: The Kd was 4.5 ± 0.5 nM.
